{"sequences": {"note": "The chains behind the UniProt entries cited, without tags or fusion partners.", "UniProt P33533, whole entry": "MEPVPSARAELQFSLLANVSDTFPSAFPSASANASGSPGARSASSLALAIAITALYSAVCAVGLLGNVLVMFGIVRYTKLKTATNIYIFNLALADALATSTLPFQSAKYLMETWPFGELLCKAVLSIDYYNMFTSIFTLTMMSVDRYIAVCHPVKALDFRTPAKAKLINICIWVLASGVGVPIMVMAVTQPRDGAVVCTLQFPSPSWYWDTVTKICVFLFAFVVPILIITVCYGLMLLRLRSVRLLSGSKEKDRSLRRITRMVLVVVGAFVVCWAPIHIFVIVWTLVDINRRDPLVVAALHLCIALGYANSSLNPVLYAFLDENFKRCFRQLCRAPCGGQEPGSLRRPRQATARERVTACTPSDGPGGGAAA"}, "source": "ChEMBL document CHEMBL1140619", "molecular_target": "Delta-type opioid receptor (Rattus norvegicus) (UniProt P33533)", "test": "Agonist activity at rat delta opioid receptor expressed in C6 cells assessed as stimulation of [35S]GTP-gamma-S binding relative to BW373U86", "format": "functional, cell-based"}
{"smiles": "CO[C@]12CC[C@@]3(C[C@@H]1C(C)(C)O)[C@H]1Cc4ccc(O)c5c4[C@@]3(CCN1CC1CC1)[C@H]2O5", "values": [{"measurement": "Activity", "result": 0.08}]}
